Laboratory results from publication PMC3306180 (Journal of Medicinal Chemistry, 2012).

How the values were obtained:
[1] = system: CRL-8155 (lymphocytic) cells; conditions: concentrations up to 10 μM
[2] = system: HL-60 (neutrophil) cells; conditions: concentrations up to 10 μM

Q: `CCOc1ccc2cc(-c3nn(C(C)C)c4ncnc(N)c34)ccc2c1.Cl` [Compound 15a] was tested. Which “inhibition of cell growth, CRL-8155” value [1] did it give?
A: no inhibition of cell growth

Q: What about the “inhibition of cell growth, HL-60” value [2] of the same molecule?
A: no inhibition of cell growth
